# Values quoted from earlier work in patent US7381400B2, “Injection of a radioactive dye for sentinel lymph node identification” (Board of Supervisors of Louisiana State University And …, priority 2004, dated 2008).
# Conditions: about 4 to 5 cc injected into the tumor region; cited from earlier work
smiles,measurement,value
"CN(C)c1ccc2nc3ccc(N(C)C)cc3[s+]c2c1.[Cl-] [Methylene blue, 3,7-bis (dimethylamino)phenothiazine-5-ium chloride]",reported adverse events,not been associated with reported adverse events
